Most compounds without a hit are left out; they make up all but 1.6% or so of the library.
CAL PDZ FP-1 – untagged CAL PDZ binding inhibitors, primary screen, biochemical, fluorescence polarization, HTS | inhibition, % at 24.9 µM | 300,000 compounds, 0.92% hits | purified CAL PDZ, TMR-peptide fluorescence polarization, 1 h | Golgi-associated PDZ and coiled-coil motif-containing protein (Homo sapiens), Q9HD26 | AID 602252, 2012;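 active = mean inhibition of at least 30% with at least half of replicates also reaching 30%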
PglD DTNB – C. jejuni PglD acetyltransferase inhibitors, primary screen, biochemical, DTNB colorimetric, single point; UDP-N-acetylbacillosamine N-acetyltransferase PglD (Campylobacter jejuni); purified PglD enzyme, DTNB colorimetric CoA detection; inhibition, % at 12.5 µM; 360,000 compounds, 0.098% hits; AID 602405, 2012; in the data active = inhibition above about 16%, passing the limit was not always enough
Yeast UUG start – alters start codon recognition fidelity in yeast. S. cerevisiae UUG-firefly luciferase reporter, luminescence/redox ratio. 350,000 tested, 0.13% active. activity score, % at 18.7 µM. AID 602363;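 active means replicate mean at a twofold rise or more, about +100% in these data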;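 further: firefly luciferase made from a UUG start codon reports start codon fidelity; reporter light over untreated wells divided by growth signal over untreated wells; some hits fall short of that in this replicate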
Vif imaging – HIV Vif self-association inhibitors, primary screen, imaging, HEK293T, single point. HEK293T cells, Vif self-association by quenched fluorescence, 24 h. inhibition, % at 7.49 µM. 340,000 compounds, 0.35% hits. AID 602346, 2012; in the data active = inhibition above about 50%, passing the limit was not always enough
ARNT-TACC3 inh – disruptors of ARNT/TACC3 protein interaction, primary screen, biochemical, AlphaScreen, single concentration. Transforming acidic coiled-coil-containing protein 3 (Homo sapiens), Q9Y6A5. AlphaScreen His-ARNT PAS-B/GST-TACC3 binding, luminescence; TACC3 fragment carries E629A point mutation. inhibition, % at 9.99 µM. 390,000 compounds, 0.66% hits;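 active = mean inhibition of replicates at least 50% and at least half of replicates each reaching 50%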
CAL PDZ FP-2 – CAL PDZ peptide-binding inhibitors, primary screen, biochemical, fluorescence polarization, Cer-tagged CAL PDZ, HTS; 330,000 compounds, 0.02% hits; purified CAL PDZ, TMR-peptide fluorescence polarization, 1 h; inhibition, % at 20 µM; AID 504414, 2011;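 active = highest replicate inhibition of at least 40%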
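Test system: tagged CAL PDZ domain / Buffer or medium: sodium phosphate/NaCl buffer pH 7.4 with TCEP, IgG, Thesit / Reagent: TMR-labelled reporter peptide T*-PRC34 bound in PDZ groove / Compound dosing: single point, 20 µM / Schedule: 1 h incubation at room temperature before polarization reading / Technique: fluorescence polarization (mP) / Benchmarks: unlabelled peptide, DMSO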
A number is an active result; . = inactive; / = not tested or not shown; ! = not confirmed by another sample.

SMILES	CAL PDZ FP-1	PglD DTNB	Yeast UUG start	Vif imaging	ARNT-TACC3 inh	CAL PDZ FP-2
O=C(N[C@H]1CC[C@@H](CCn2cc(C3(O)CCCC3)nn2)O[C@@H]1CO)c1ccccc1F	/	.	.	/	.	/
O=C(NNC(=S)Nc1ccccc1)c1cc(-c2cccnc2)nc2ccccc12	.	/	/	.	.	.
CCOC(=O)c1ccc(NC(=S)NNC(=O)c2cc(-c3cccnc3)nc3ccccc23)cc1	49	.	.	.	.	.
O=C(Nc1ccc2c(c1)OCO2)c1cc(-c2cccnc2)nc2ccccc12	40	/	/	.	.	.
O=C(NN1CCOCC1)c1cc(-c2ccc(Br)cc2)nc2ccccc12	59	.	.	.	.	.
Cc1ccc(-c2cc(C(=O)Nc3ccc4c(c3)OCCO4)c3ccccc3n2)cc1	.	.	.	.	.	.
O=C(Nc1cccnc1)c1cc(-c2ccc(Br)cc2)nc2ccccc12	68	.	.	.	.	.
C[C@@H]1CCCCO[C@H](CN(C)Cc2ccccc2)[C@@H](C)CN([C@H](C)CO)C(=O)c2cc(N(C)C)ccc2O1	/	/	.	/	/	/
COc1ccc(CN(C)C[C@@H]2OCCCC[C@@H](C)Oc3ccc(NS(=O)(=O)c4cn(C)cn4)cc3C(=O)N([C@H](C)CO)C[C@H]2C)cc1	/	.	.	/	.	/
O=C(CNc1ccccc1)c1ccc([N+](=O)[O-])cc1	.	/	/	.	.	.
CC(=O)Nc1ccc(NCC(=O)c2ccccc2)cc1	50	.	.	.	.	.
C[C@H](CO)N1C[C@H](C)[C@H](CN(C)Cc2ccc(C(=O)Nc3ccccc3N)cc2)Oc2c(NC(=O)c3nc4ccccc4s3)cccc2C1=O	/	.	.	/	.	/
CC1(C)CC(=O)C(/C=N/n2c(C(F)(F)F)nc3ccccc3c2=O)=C(O)C1	.	.	.	85	.	.
O=C(NC1CCN(Cc2ccccc2)C1)c1cc(S(=O)(=O)N2CCOCC2)ccc1Cl (stereo not drawn)	59	.	.	.	.	.
CCCc1cn(CC[C@@H]2CC[C@@H](NS(=O)(=O)c3ccccc3Cl)[C@H](CO)O2)nn1	/	.	.	/	.	/
CO[C@H]1CN(C)C(=O)c2cc(NC(=O)Nc3cc(F)ccc3F)ccc2OC[C@H](C)N(C(=O)c2cnccn2)C[C@H]1C	/	.	.	/	.	/
Cn1c(/C=C/c2ccc(Cl)cc2)c([N+](=O)[O-])c(=O)n(C)c1=O	.	.	.	.	.	.
CN(/C=C/c1c([N+](=O)[O-])c(=O)n(C)c(=O)n1C)c1ccccc1	86	.	.	.	active	.
OC(CNCC1CCCO1)Cn1c2ccc(Cl)cc2c2cc(Cl)ccc21 (stereo not drawn)	44	.	.	.	.	.
Cc1noc(C)c1S(=O)(=O)Nc1ccc2c(c1)CC(=O)N([C@H](C)CO)C[C@@H](C)[C@H](CN(C)C(=O)Nc1ccc(C(F)(F)F)cc1)O2	/	.	.	/	.	/
CCCCc1ccc(S(=O)(=O)Nc2nnc(C)s2)cc1	52	.	.	.	.	.
COc1ccccc1/C=C/C(=O)NCC(=O)N/N=C(\CCC(=O)O)c1ccccc1	.	/	/	.	/	.
COc1ccc(/C=C/C(=O)NCC(=O)N/N=C(/CCC(=O)O)c2ccccc2)cc1	32	.	.	.	.	.
COc1ccc(C(=O)N2C[C@H]3[C@@H](c4ccccc42)[C@H](CO)N3Cc2ccc3c(c2)OCO3)cc1	/	.	.	/	.	/
CCOCCOc1cc(NCc2ccccc2)c2ncn(C(C)C)c2c1	.	.	.	.	19	.
SMILES	CAL PDZ FP-1	PglD DTNB	Yeast UUG start	Vif imaging	ARNT-TACC3 inh	CAL PDZ FP-2
COCCCOc1cc(NCc2ccccc2)c2ncn(C(C)C)c2c1	.	.	.	.	.	.
CC(C)n1cnc2c(NCc3ccccc3)cc(N[C@H](C)CO)cc21	.	.	.	.	34	.
CCC(CO)Oc1cc(NCc2ccc(O)cc2)c2ncn(C(C)C)c2c1 (stereo not drawn)	.	.	.	.	/	.
CCCCOc1cc(NCc2ccccc2)c2ncn(C(C)C)c2c1	.	.	.	.	.	.
CCC(CO)Oc1cc(NCc2ccccc2)c2ncn(C(C)C)c2c1 (stereo not drawn)	.	.	.	.	41!	.
CC(C)NC(=O)N1C[C@H]2[C@@H](c3ccccc31)[C@@H](CO)N2C(=O)Nc1cccc(F)c1	/	.	.	/	.	/
C[C@@H]1CCCCO[C@H](CN(C)Cc2ccccc2)[C@H](C)CN([C@H](C)CO)C(=O)c2cc(NS(=O)(=O)c3ccc(F)cc3)ccc2O1	/	.	.	/	.	/
CS(=O)(=O)Nc1ccc2c(c1)[C@H]1C[C@@H](CC(=O)NC3CCCCC3)O[C@@H](CO)[C@H]1O2	/	.	.	/	.	/
c1ccc(-c2ccccc2OCCOCCN2CCc3ccccc3C2)cc1	75	/	/	.	.	.
CCOc1ccc2nc(SCC(=O)c3ccc(C)s3)sc2c1	.	.	.	.	/	.
CCOc1ccc2nc(SCC(=O)c3ccc(O)cc3O)sc2c1	36	.	.	.	.	/
C[C@@H]1CN([C@@H](C)CO)C(=O)c2cccc(NC(=O)c3ccncc3)c2O[C@H]1CN(C)C(=O)Nc1ccc(C(F)(F)F)cc1	/	.	.	/	.	/
Cc1nn(-c2ccccc2)c2c1C(c1ccncc1)C(C#N)=C(N)O2 (stereo not drawn)	.	/	/	.	.	.
COc1cc(-n2nc(C)c3c2OC(N)=C(C#N)C3c2ccccc2)c(Cl)c(Br)c1O (stereo not drawn)	.	.	.	.	33	.
O=c1[nH]nc(-c2ccc(NCCO)c([N+](=O)[O-])c2)c2ccccc12	.	.	.	56	.	.
C[C@@H]1CN([C@@H](C)CO)C(=O)c2cc(NC(=O)Nc3ccc4c(c3)OCO4)ccc2O[C@H]1CN(C)S(C)(=O)=O	/	.	.	/	.	/
CCOc1ccc(C2N(c3cc(C)on3)C(=O)C3CCCN32)cc1OC (stereo not drawn)	.	.	.	.	.	.
COc1ccc(C2N(c3cc(C)on3)C(=O)C3CCCN32)cc1OC (stereo not drawn)	51	.	.	.	.	.
C[C@H]1CN([C@@H](C)CO)S(=O)(=O)c2ccc(-c3ccncc3)cc2O[C@H]1CN(C)C	/	.	.	/	.	/
C[C@H]1CN([C@@H](C)CO)C(=O)c2cccc(NC(=O)C3CCCCC3)c2O[C@H]1CN(C)CC1CC1	/	.	.	/	.	/

Compound activity (PubChem)
